Literature values as cited in patent US6117976A, “Manufacture and use of polypeptides tagged using binding molecules” (Medical Research Council, priority 1993, dated 2000).

Target: calmodulin (Homo sapiens, UniProt P0DP23)
Conditions: Table 1, affinities of calmodulin-binding peptides; cited from earlier work

Substance	Kd
INWKGIAAMAKKLL-NH2 [Mastoparan X]	1 nM
VNWKKIGQHILSVL-NH2 [Mastoparan Polist.]	4 nM
